Common to all, as to format: biochemical
For assay [1], the target named is prothrombinase-activated prothrombin-KL3 (Homo sapiens, UniProt P00734). The protocol:
(§1) Prothrombin variants were activated to thrombin by prothrombinase immediately prior to analyses. Reaction mixtures of prothrombin variant (1 μM) and preassembled prothrombinase (2 nM FXa, 2 nM FV-810, and 50 μM phospholipid TGT, final concentrations) were incubated for 30 minutes at 25°C in assay buffer, upon which the reaction was quenched in dilution buffer supplemented with 50 mM EDTA.

The target in assay [2] is prothrombinase-activated prothrombin-I174F (Homo sapiens, UniProt P00734, I542F). Nature of the assay: Inhibition of pNAPEP-0238 peptidyl substrate conversion in a purified system. The method, then: as §1
Assay [3] has as its target prothrombinase-activated wild-type prothrombin (Homo sapiens, UniProt P00734). Described as above. The method, then:
as §1

Assay [4] concerns the target prothrombinase-activated prothrombin-I174A (Homo sapiens, UniProt P00734, I542A). The description is as above. The method, then:
as §1

A further assay has as its target wild-type prothrombin (Homo sapiens, UniProt P00734). Nature of the assay: Thrombin generation (calibrated automated thrombography) in supplemented prothrombin-depleted plasma, inhibition by direct thrombin inhibitors.
The next assay deals with prothrombin-I174A (Homo sapiens, UniProt P00734, I542A). Nature of the assay: Thrombin generation in supplemented prothrombin-depleted plasma, inhibition by direct thrombin inhibitors. To be noted: prothrombin-depleted plasma + 180 µg/mL prothrombin-I174A; 37°C; read-out: IC50, thrombin peak height.
The target in the next assay is prothrombin-I174F (Homo sapiens, UniProt P00734, I542F). The assay is described as above. To be noted: prothrombin-depleted plasma + 180 µg/mL prothrombin-I174F; 37°C; read-out: IC50, thrombin peak height.

Molecules are shown by their SMILES. Where two headings read alike, the source gives them in different places.

The values below come from article PMC12758957 (Thrombosis and Haemostasis, 2025).

In the case of `CC1CNc2c(cccc2S(=O)(=O)N[C@@H](CCCNC(=N)N)C(=O)N2CC[C@@H](C)C[C@@H]2C(=O)O)C1` (stereo partly drawn) [Argatroban], the Ki was 17 nM in assay [1] (KL3, Cheng-Prusoff equation); 13 nM in assay [2] (I174F, Cheng-Prusoff equation); 3 nM in assay [3] (WT, Cheng-Prusoff equation); 13 nM in assay [4] (I174A, Cheng-Prusoff equation). For the same molecule, the IC50 in assay [1] (read-out: IC50, pNAPEP-0238 conversion, 5 nM prothrombinase-activated KL3, 50 μM pNAPEP-0238) came to 29 ± 4 nM; in assay [2] (5 nM prothrombinase-activated I174F, 50 μM pNAPEP-0238) it was 26 ± 3 nM; in assay [3] (5 nM prothrombinase-activated WT, 50 μM pNAPEP-0238), 8 ± 2 nM; in assay [4] (5 nM prothrombinase-activated I174A, 50 μM pNAPEP-0238), 30 ± 4 nM; on wild-type prothrombin (prothrombin-depleted plasma + 180 µg/mL wild-type prothrombin, peak height normalized to no inhibitor, 37°C, read-out: IC50, thrombin peak height) it was 69 ± 7 nM; at wild-type prothrombin (prothrombin-depleted plasma supplemented with wild-type prothrombin, read-out: half-maximum inhibition of thrombin peak), 70 nM. Also, the IC50 at prothrombin-I174A stood at 76 ± 9 nM; at prothrombin-I174F, 86 ± 11 nM.
